Results published in US20060128757A1, “Pyridine derivatives useful as cyclooxygenase inhibitor” (Astellas Pharma Inc., priority 2001, published 2006).

Protein sequences, listed by entry. Tags and fused reporters are not part of them. Residues count along the entry.
UniProt P23219, 24-599: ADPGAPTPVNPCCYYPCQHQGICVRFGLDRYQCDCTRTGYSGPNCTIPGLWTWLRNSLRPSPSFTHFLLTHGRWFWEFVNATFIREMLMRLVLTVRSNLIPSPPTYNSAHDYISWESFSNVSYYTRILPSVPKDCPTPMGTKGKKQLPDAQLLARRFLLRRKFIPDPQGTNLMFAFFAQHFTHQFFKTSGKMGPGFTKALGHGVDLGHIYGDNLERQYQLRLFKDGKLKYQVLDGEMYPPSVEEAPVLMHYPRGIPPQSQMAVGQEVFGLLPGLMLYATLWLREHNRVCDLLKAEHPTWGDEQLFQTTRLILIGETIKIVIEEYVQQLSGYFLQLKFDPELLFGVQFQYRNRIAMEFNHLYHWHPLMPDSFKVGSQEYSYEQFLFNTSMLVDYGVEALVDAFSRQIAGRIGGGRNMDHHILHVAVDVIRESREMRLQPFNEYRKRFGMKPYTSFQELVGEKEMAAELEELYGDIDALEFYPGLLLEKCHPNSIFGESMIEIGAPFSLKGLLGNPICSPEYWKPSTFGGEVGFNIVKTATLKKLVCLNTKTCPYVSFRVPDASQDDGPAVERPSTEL

Biological target: COX-I (Homo sapiens, UniProt P23219)
Experiment: Whole blood assay for COX-I (TXB2 production)

Compound: COc1ccc(-c2cc(C#N)cnc2-c2ccc(OC)cc2)cc1 [Example 4, 5-(4-methoxyphenyl)-6-(4-methoxyphenyl)-pyridine-3-carbonitrile]
- Selectivity: 112

Compound: COc1ccc(-c2noc(CC(=O)O)c2-c2ccc(OC)cc2)cc1 [H, Mofezolac, reference compound]
- IC50 (Whole blood assay (IC50: μM) COX-I, Table 1, human whole blood, TXB2 production): 0.42 µM
